{"sequences": {"note": "By UniProt entry, the sequences of proteins in these tests, tags left out.", "UniProt O75116, whole entry": "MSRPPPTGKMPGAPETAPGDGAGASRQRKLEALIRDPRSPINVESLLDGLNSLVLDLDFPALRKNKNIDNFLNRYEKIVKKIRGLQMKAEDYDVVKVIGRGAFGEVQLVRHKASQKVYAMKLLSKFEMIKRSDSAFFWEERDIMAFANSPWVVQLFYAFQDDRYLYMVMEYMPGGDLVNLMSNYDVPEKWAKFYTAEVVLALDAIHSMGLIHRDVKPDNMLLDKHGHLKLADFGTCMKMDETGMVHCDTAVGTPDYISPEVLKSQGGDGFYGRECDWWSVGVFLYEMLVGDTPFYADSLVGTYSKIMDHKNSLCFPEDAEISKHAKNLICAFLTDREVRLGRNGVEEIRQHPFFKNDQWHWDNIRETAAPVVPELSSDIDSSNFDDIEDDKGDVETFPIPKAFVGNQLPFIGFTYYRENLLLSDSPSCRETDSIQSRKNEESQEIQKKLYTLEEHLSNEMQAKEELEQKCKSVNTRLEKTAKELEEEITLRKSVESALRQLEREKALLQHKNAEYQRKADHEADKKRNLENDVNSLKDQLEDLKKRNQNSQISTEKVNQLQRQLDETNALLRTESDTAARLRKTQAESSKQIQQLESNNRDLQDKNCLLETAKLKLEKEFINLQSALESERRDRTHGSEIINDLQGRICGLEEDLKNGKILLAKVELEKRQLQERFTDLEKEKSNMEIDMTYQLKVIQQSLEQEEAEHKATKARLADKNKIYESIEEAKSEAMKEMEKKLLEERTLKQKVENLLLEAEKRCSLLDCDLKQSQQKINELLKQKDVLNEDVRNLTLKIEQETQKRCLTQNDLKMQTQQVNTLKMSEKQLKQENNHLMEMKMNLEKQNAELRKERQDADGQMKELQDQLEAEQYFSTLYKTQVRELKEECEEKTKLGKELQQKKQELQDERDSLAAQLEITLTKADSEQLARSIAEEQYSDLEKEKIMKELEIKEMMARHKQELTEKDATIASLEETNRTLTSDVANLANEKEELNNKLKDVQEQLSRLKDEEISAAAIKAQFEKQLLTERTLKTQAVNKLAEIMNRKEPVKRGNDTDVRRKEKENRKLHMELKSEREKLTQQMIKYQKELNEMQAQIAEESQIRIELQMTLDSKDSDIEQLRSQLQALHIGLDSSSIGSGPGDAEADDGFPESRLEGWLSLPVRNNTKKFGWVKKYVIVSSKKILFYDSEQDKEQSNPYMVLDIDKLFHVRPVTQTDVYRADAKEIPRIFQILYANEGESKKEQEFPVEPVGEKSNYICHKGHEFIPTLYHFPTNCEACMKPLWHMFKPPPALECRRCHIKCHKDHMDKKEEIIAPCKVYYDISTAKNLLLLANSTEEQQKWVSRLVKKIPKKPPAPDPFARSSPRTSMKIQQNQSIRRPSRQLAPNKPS"}, "source": "PubChem BioAssay AID604", "about": "(The Scripps Research Institute Molecular Screening Center, 2007)", "note": "The list shows a part of the results, in another mix than the full data. Activity calls are given as the source filed them.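 How the source made its calls: active means inhibition above the screen-wide mean inhibition plus 3 SD (cut at about 18% in these data); inactive means the rest.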"}
{"target": "Rho-associated protein kinase 2 (Homo sapiens) (UniProt O75116)", "experiment": "inhibitors of human ROCK2 kinase, primary screen, biochemical, high-throughput, luminescence (AID 604);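 further: plate controls were DMSO wells for no effect and Y-27632 control wells after no-enzyme background subtraction for full effect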", "conditions": "purified ROCK2, Kinase-Glo ATP depletion luminescence; at 6 µM; active compounds read high"}
{"smiles": "COc1ccc(NC2CCN(CCc3ccccc3)CC2)c(OC)c1", "inhibition": "inactive: 0.3%"}
{"smiles": "O=C(OC1CN2CCC1CC2)C1c2ccccc2Oc2ccccc21", "note": "(configuration not stated)", "inhibition": "inactive: 6%"}
{"smiles": "N#CC1(Nc2ccccc2)CCN(CCc2ccccc2)CC1", "inhibition": "inactive: 4.9%"}
{"smiles": "N/C(=N\\O)c1c(N)no[n+]1[O-]", "inhibition": "inactive: 6%"}
{"smiles": "CCC(CO)(C(=O)OC1CN2CCC1CC2)c1ccccc1", "note": "(configuration not stated)", "inhibition": "inactive: -1.3%"}
{"smiles": "CCOc1ncccc1C(=O)NCC1(N2CCOCC2)CCCCC1", "inhibition": "inactive: 4.6%"}
{"smiles": "Fc1ccccc1NC1CCN(Cc2ccccc2)CC1", "inhibition": "inactive: 7.2%"}
